Laboratory results taken from patent US20050164951A1, “Inhibitors for the soluble epoxide hydrolase” (The Regents of the University of California, priority 2003, published 2005).

Assay: Pharmacokinetics after oral gavage in mice
Conditions: FIG. 10; 5 mg/kg oral 800 versus 687, mice

Compound: CCCCOC(=O)CCCCCCCCCCCNC(=O)NC12CC3CC(CC(C3)C1)C2 [Compound 800, 1-(1-Adamantyl)-3-(11-butoxycarbonylundecyl)urea]
- half-life: longer half-life
